In the library only some 1.5% were active in any assay of this set; here they are far more common.
miR122 inh – inhibitors of miR-122 in Huh7 cells. Huh7 miR-122 Renilla luciferase sensor, 48 h; neutral wells = 0, positive control = 100. activation (reporter increase), % at 12.5 µM. 340,000 compounds, 0.3% hits;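 active means mean replicate activation score at least 90 and every replicate individually at or above 90; inconclusive means only one of the two criteria met; inactive means neither criterion met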;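 further: higher luciferase means less miR-122 activity so hits act as miR-122 inhibitors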
Yeast UUG start – yeast start codon fidelity modulation | S. cerevisiae UUG-firefly luciferase reporter, luminescence/redox ratio | activity score, % at 18.7 µM | 0.13% of 350,000 active | AID 602363;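 active means replicate mean at a twofold rise or more, about +100% in these data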;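 further: firefly luciferase made from a UUG start codon reports start codon fidelity; reporter light over untreated wells divided by growth signal over untreated wells; some hits fall short of that in this replicate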
FN deposit inh – fibronectin deposition inhibition | AH1F fibroblasts, Alexa488-fibronectin deposition fluorescence, overnight | inhibition, % at 12.6 µM | 350,000 compounds, 0.086% hits | AID 743247;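 active means mean inhibition across replicates of 30% or more, regardless of how many single replicates reach that level; inconclusive means mean under 30% yet at least half of replicates reach 30%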;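 further: positive control wells lacked labelled fibronectin entirely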
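Material: AH1F fibroblasts assembling fluorescent fibronectin matrix; amount: 10000 AH1F cells/well; medium: DMEM, 2% serum; reagent: Alexa488-fibronectin, 24 nM final in well; dosing: single compound dose, delivered by pin transfer; incubation: 1 h adhesion, overnight exposure; detection: fluorescence after three HBSS washes, excitation 485 nm, emission 525 nm; measure: fibronectin deposition inhibition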
Cneo AK release – Cryptococcus neoformans lysis via adenylate kinase release. C. neoformans lysis, adenylate kinase release luminescence, 4 h; normalised: neutral wells 0, clomiphene wells 100. lysis activity, % at 15 µM. 360,000 compounds, 0.2% hits. AID 651654;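 active means mean lysis activity across replicates of at least 80%, whatever share of replicates individually reach that level; inactive means mean lysis activity below 80%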
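Test system: log-phase Cryptococcus neoformans yeast cells; Quantity: yeast cell density of 5 × 10^6 cells/mL; Buffer or medium: YPD; Doses: single compound concentration per well; Timing: 4 h at 37 °C static, read 1 h later; Measured by: AK luminescence; Read-out basis: lysis from increased AK signal; Control set: Clomiphene as positive control.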
PGC1a acetyl inh – lowers PGC1a acetylation signal in U2OS cells | AlphaScreen anti-acetyl-lysine; with virally co-expressed GCN5 acetyltransferase | inhibition, % at 15.6 µM | 350,000 compounds, 0.17% hits;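 active means every replicate shows inhibition of at least 40%; inconclusive means mean inhibition at least 40% but some replicate below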;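 further: 0% = neutral control wells and 100% = positive control wells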
Env fusion inh – HIV envelope-mediated fusion inhibition | HeLa-JRFL Env/CEM21 cell fusion, luciferase | inhibition, % at 12.3 µM | 360,000 compounds, 1.1% hits | AID 651610;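 active means mean replicate inhibition score of at least 50 and every replicate individually at or above 50; inconclusive means only one of the two criteria met; inactive means mean below 50 and not all replicates reaching 50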;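 further: 0% = plate neutral controls and 100% = maraviroc near 300 nM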
An asterisk follows results filed as active; ? = inconclusive; / = no result; [ ] = remark or other dose.

No.	canonical_smiles	miR122 inh	Yeast UUG start	FN deposit inh
1	Cc1ccc(S(=O)(=O)NCC[C@@H]2CC[C@@H](NC(=O)c3cnccn3)[C@H](CO)O2)cc1	101*[16.7 µM]	-3	/
2	O=C(CC1CC1)N[C@@H]1CC[C@H](CCNS(=O)(=O)c2ccc(Cl)cc2)O[C@H]1CO	/	-11	-13
3	C[C@H](CO)N1C[C@H](C)[C@@H](CN(C)CC2CCCC2)Oc2cc(C3=CCCC3)ccc2S1(=O)=O	50[16.7 µM]	-1	2
4	O=C(Cn1ncc2ccccc2c1=O)Nc1cccc(C(F)(F)F)c1	-1	-30	5
5	C[C@H]1CN([C@@H](C)CO)C(=O)Cc2cc(NC(=O)Nc3ccc(C(F)(F)F)cc3)ccc2O[C@H]1CN(C)S(=O)(=O)c1ccc(F)cc1	?	/	/
6	Cc1ccc(S(=O)(=O)N(C)C[C@H]2Oc3ccc(NC(=O)Nc4ccc(C(F)(F)F)cc4)cc3CC(=O)N([C@@H](C)CO)C[C@H]2C)cc1	-4[16.7 µM]	1	3
7	C[C@H](CO)N1C[C@H](C)[C@H](CN(C)S(=O)(=O)c2ccc(Cl)cc2)Oc2ccc(NC(=O)Nc3ccc(C(F)(F)F)cc3)cc2CC1=O	94*[16.7 µM]	/	/
8	C[C@H](CO)N1C[C@H](C)[C@@H](CN(C)S(=O)(=O)c2ccc(F)cc2)Oc2ccc(NC(=O)Nc3ccc(C(F)(F)F)cc3)cc2CC1=O	0[16.7 µM]	/	/
9	N#Cc1ccc(-c2ccc3c(c2)[C@@H]2[C@@H](CCN2C(=O)CN2CCOCC2)[C@@H](CO)N3)cc1	-1[16.7 µM]	-13	-6
10	O=C(NCCNC(=O)c1ccccn1)c1ccc(Cl)cc1	2	-14	5
11	O=C(N[C@H]1C=C[C@@H](CC(=O)N2CCN(c3ccccc3)CC2)O[C@H]1CO)c1ccccc1	/	-6	0
12	O=C(c1cc([N+](=O)[O-])ccc1N1CCOCC1)N1CCN(c2ccccc2)CC1	?	11	0

No.	Cneo AK release	PGC1a acetyl inh	Env fusion inh
1	-4	4	4[16.7 µM]
2	2	64*	-14[16.7 µM]
3	28	-4	13[16.7 µM]
4	0	/	-3
5	/	-7	-4[16.7 µM]
6	0	3	94*[16.7 µM]
7	/	-2	37[16.7 µM]
8	/	-10	101*[16.7 µM]
9	-4	-3	/
10	1	7	-7
11	1	-4	11[16.7 µM]
12	0	/	-106

Three of these compounds in a different format.
item	Compound	miR122 inh	Yeast UUG start	FN deposit inh	Cneo AK release	PGC1a acetyl inh	Env fusion inh
7	C[C@H](CO)N1C[C@H](C)[C@H](CN(C)S(=O)(=O)c2ccc(Cl)cc2)Oc2ccc(NC(=O)Nc3ccc(C(F)(F)F)cc3)cc2CC1=O	94*[16.7 µM]	/	/	/	-2	37[16.7 µM]
8	C[C@H](CO)N1C[C@H](C)[C@@H](CN(C)S(=O)(=O)c2ccc(F)cc2)Oc2ccc(NC(=O)Nc3ccc(C(F)(F)F)cc3)cc2CC1=O	0[16.7 µM]	/	/	/	-10	101*[16.7 µM]
9	N#Cc1ccc(-c2ccc3c(c2)[C@@H]2[C@@H](CCN2C(=O)CN2CCOCC2)[C@@H](CO)N3)cc1	-1[16.7 µM]	-13	-6	-4	-3	/

(further entries)
No.	canonical_smiles	miR122 inh	Yeast UUG start	FN deposit inh
13	O=[N+]([O-])c1ccc(O)c(C(C#Cc2ccccc2)N2CCOCC2)c1 (stereo not given)	/	/	11
14	CCOc1ccc(OCC)c(NC(=O)CN2CCN(c3cc(C)ccc3C)CC2)c1	-1	13	12
15	CCOc1ccc(OCC)c(NC(=O)CN2CCN(c3cccc(C)c3)CC2)c1	-1	-15	/
16	CCN(CC)c1ccc(C(=C2C=CC(=[N+](CC)CC)C=C2)c2ccc(N(CC)CC)cc2)cc1	-38	-63	60*
17	CCN(CC)c1ccc(C(=C2C=CC(=[N+](CC)CC)C=C2)c2ccccc2)cc1	/	/	38*
18	Cc1ccc(N(C(=O)Cc2c[nH]c3ccccc23)C(C(=O)NC2CCCCC2)c2ccco2)cc1 (stereo not given)	-6	-18	-4
19	COC(=O)Nc1ccc(S(=O)(=O)N2CCCc3ccccc32)cc1	64	-19	15*
20	O=C(Nc1nc2c(s1)CCCC2)c1ccc(S(=O)(=O)N2CCCc3ccccc32)cc1	-3	-11	/
21	CC1CCc2nc(NC(=O)c3ccc(S(=O)(=O)N4CCCc5ccccc54)cc3)sc2C1 (stereo not given)	-5	-6	/
22	COC(=O)Nc1ccc(S(=O)(=O)N2CCCc3cccc(O)c32)cc1	/	/	13
23	Cc1ccc(-n2nc(C)c(C(=O)Nc3cccc(C(=O)NC4CC4)c3)n2)c(C)c1	-7	-19	-5
24	Fc1ccccc1Cn1cc(C(=S)N2CCOCC2)c2ccccc21	247*	-20	1
25	COc1cc(N=CC2=C(O)c3ccccc3C2=O)cc(OC)c1	-3	-21	5
26	COc1ccccc1C#Cc1ccc2c(c1)O[C@@H](CN(C)Cc1ccncc1)[C@@H](C)CN([C@@H](C)CO)S2(=O)=O	-7[16.7 µM]	-2	/

No.	Cneo AK release	PGC1a acetyl inh	Env fusion inh
13	/	-1	89*
14	-3	-10	61*
15	2	-12	/
16	-3	83*	62*
17	/	/	81*
18	-1	13	84*
19	-1	/	59*
20	0	-5	64*
21	0	-11	/
22	/	0	-56
23	-1	-6	/
24	12	-4	6
25	0	-2	-16
26	2	-6	46*[16.7 µM]

High-throughput results from PubChem BioAssay.
